The values below are quoted from earlier work in publication PMC10459693, “Toward Stability Enhancement of NTS1R-Targeted Radioligands: Structural Interventions on [^99mTc]Tc-DT1” (Pharmaceutics, 2023).

Protein sequences, listed by entry. Tags and fused reporters are not part of them.
UniProt P30989, whole entry: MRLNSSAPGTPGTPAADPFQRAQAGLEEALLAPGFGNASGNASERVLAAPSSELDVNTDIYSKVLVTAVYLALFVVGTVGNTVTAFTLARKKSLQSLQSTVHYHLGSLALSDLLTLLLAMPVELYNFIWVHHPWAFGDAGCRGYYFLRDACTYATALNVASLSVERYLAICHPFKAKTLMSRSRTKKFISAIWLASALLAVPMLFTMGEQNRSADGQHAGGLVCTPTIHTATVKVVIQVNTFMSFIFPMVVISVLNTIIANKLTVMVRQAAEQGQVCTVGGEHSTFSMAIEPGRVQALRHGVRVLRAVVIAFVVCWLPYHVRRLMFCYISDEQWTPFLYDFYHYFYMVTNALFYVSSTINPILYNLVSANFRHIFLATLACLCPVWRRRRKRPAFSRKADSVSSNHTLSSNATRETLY

The data set concerns the target T1, human NTS1R (Homo sapiens, UniProt P30989).
T1 construct: Cell membrane homogenates from WiDr cells were collected; host or cells: WiDr human colorectal adenocarcinoma cells (membrane homogenates)
Also noted: method as in PMID 16854083. The conditions noted are these: unmodified DT1, WiDr cell membranes; cited from earlier work.

The IC50 is the concentration needed to halve the response being measured. As to “N4-Gly-Arg-Arg-Pro-Tyr-Ile-Leu-OH (GRRPYIL) [DT1, N4-Gly^7-NT(8-13); N4 = 6-(carboxy)-1,4,8,11-tetraazaundecane]”, the half-maximal inhibitory concentration (IC50) is 0.14 ± 0.01 nM.
